Values quoted from earlier work as cited in patent publication US6743448B2, “Topical testosterone formulations and associated methods” (priority 2000, dated 2004).

Chains of the proteins cited; added tags and fusions are not shown. Residues count along the entry.
UniProt P02768, 25-609: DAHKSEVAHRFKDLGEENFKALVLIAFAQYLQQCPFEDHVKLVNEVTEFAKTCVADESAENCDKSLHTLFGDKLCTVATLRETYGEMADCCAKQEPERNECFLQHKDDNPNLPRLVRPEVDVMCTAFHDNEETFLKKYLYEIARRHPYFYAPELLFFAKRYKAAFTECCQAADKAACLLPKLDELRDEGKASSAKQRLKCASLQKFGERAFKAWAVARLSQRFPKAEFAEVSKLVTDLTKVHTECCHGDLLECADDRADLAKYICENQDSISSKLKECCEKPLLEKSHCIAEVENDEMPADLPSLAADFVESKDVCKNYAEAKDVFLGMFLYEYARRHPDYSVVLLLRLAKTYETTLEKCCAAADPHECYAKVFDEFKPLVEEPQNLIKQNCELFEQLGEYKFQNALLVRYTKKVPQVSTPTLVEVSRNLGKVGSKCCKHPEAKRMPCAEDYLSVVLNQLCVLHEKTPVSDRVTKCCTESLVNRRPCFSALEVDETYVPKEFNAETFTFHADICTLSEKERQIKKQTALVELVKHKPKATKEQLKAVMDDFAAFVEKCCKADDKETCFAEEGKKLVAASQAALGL

Biological target: serum albumin (Homo sapiens, UniProt P02768)

For `C[C@]12CC[C@H]3[C@@H](CCC4=CC(=O)CC[C@@]43C)[C@@H]1CC[C@@H]2O` [Testosterone, (17)-17-Hydroxyandrost-4-en-3-one], the Albumin-testosterone binding constant is listed as 36000 L/mol.
